Biological target: T1, HMG-CoA reductase (Homo sapiens, UniProt P04035)
T1 sequence (P04035 426-888 limits assumed): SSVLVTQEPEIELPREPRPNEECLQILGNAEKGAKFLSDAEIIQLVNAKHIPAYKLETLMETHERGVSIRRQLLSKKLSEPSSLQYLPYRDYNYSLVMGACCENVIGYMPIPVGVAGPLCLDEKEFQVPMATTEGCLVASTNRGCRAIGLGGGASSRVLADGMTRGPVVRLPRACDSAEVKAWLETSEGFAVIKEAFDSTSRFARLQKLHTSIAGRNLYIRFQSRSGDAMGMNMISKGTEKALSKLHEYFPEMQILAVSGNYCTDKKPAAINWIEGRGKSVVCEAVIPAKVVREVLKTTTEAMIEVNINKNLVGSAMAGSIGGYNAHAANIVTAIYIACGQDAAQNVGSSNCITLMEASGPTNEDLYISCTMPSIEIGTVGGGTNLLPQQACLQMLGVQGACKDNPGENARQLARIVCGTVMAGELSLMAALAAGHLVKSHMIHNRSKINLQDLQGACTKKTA
Test: HMG-CoA reductase inhibitory activity test in vitro
Type: biochemical

CC(C)c1c(C(=O)Nc2ccccc2)c(-c2ccccc2)c(-c2ccc(F)cc2)n1CC[C@@H](O)C[C@@H](O)CC(=O)O [atorvastatin, reference compound]
IC50: 31.2 µM

— patent US10441562B2, “Aromatic farnesyl compound and application thereof” (INSTITUTE OF MICROBIOLOGY, CHINESE ACADEMY OF SCIENCES, priority 2015, dated 2019)
